The numbers were not newly measured in US20160317610A1, “COMPOSITIONS AND METHODS FOR TREATING OVARIAN CANCER INCLUDING PREVENTING THE […]” (University of Southern California, priority 2013, published 2016), which cites them from elsewhere.

For one series, the system named is OC xenograft. The conditions noted are these: IP treatment.

For volociximab: an α5β1-specific mAb, in the series on OC xenograft, the animal survival result is “increase animal survival”; the “tumor burden, ascites formation and number of metastatic foci” value was “significantly reduce tumor burden, ascites formation and the number of metastatic foci”. Also, the clinical efficacy result with advanced OC is recorded as “failed to show clinical efficacy”.
